Experimental data: publication PMC9492542, “Brain-restricted mTOR inhibition with binary pharmacology” (Nature, 2022)

Protein sequences, listed by entry. Tags and fused reporters are not part of them. Lines headed by an entry give the natural chain unless they say otherwise; changes in a name come on top.
UniProt Q86Z02: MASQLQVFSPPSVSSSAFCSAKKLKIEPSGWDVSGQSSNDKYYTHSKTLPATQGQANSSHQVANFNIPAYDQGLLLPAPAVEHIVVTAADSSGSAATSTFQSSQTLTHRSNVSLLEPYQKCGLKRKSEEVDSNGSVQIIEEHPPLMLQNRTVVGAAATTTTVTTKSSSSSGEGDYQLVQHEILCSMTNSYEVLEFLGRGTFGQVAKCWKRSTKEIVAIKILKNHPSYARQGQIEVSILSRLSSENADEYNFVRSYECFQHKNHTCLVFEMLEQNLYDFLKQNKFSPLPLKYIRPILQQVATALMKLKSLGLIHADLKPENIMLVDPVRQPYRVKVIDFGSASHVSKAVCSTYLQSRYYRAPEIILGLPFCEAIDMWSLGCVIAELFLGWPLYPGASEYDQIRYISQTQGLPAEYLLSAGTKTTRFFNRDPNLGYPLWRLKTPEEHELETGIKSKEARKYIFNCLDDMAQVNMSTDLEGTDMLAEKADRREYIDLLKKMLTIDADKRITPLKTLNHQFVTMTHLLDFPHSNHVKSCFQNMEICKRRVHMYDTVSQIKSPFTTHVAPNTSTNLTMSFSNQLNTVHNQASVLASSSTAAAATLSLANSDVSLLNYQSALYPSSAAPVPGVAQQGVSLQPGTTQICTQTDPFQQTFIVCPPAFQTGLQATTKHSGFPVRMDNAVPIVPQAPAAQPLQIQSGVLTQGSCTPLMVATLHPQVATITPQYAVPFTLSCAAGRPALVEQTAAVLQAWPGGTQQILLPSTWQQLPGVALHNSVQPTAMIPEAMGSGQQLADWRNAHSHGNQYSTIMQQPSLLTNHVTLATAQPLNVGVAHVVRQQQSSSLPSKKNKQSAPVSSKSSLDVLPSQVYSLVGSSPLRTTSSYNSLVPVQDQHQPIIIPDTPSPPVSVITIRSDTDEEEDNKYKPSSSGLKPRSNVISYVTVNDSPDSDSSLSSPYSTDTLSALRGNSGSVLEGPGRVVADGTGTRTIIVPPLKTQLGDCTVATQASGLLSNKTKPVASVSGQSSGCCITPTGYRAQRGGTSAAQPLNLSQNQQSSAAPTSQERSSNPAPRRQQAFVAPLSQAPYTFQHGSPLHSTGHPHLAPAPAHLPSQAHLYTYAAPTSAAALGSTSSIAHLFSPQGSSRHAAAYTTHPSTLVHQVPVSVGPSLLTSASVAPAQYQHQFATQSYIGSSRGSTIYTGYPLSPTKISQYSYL

Tests used:
[1] = tested on: human PBMCs; experiment: Proliferation of anti-CD3/anti-CD28 stimulated PBMCs (120 h); type: cell-based; parameters: unit not given here; conditions: 0.137174 nM Rapamycin, +10 μM RapaBlock
[2] = biological target: 476 purified kinases (Homo sapiens, UniProt Q86Z02); conditions: ZLYTE; 10 nM + 10 µM FKBP12
[3] = biological target: T1, 476 purified kinases (Homo sapiens, UniProt P29320); conditions: 10 nM compound + 10 µM FKBP12
T1 sequence (P29320 21-983): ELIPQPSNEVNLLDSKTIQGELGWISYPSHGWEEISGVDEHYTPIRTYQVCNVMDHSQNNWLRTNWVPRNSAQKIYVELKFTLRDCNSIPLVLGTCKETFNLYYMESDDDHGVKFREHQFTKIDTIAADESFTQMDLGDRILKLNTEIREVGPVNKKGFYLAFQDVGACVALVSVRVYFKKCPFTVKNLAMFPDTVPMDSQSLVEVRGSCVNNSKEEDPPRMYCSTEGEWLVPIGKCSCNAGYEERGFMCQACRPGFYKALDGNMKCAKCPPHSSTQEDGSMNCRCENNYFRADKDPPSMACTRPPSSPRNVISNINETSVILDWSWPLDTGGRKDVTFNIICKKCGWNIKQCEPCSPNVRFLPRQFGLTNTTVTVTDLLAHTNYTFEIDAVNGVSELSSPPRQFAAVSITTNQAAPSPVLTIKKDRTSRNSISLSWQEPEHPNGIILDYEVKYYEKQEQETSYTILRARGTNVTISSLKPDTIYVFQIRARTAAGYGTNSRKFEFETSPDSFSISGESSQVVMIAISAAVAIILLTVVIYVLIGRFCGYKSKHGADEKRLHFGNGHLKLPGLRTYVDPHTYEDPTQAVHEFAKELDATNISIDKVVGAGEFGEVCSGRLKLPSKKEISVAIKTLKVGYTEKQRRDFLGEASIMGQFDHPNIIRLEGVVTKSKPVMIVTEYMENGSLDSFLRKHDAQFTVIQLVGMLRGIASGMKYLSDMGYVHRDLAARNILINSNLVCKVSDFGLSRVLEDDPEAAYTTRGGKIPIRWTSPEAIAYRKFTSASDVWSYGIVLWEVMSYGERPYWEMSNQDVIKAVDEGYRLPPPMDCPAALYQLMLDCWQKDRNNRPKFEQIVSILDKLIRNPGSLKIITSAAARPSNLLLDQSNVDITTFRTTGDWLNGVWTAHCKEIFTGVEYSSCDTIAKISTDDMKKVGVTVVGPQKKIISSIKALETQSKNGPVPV

| Structure (SMILES) | PBMC cell proliferation [1] | HIPK1 (Myak) (kinase profiling) [2] | EPHA3 (LanthaScreen Binding) [3] |
| --- | --- | --- | --- |
| CO[C@H]1C[C@@H]2CC[C@@H](C)[C@@](O)(O2)C(=O)C(=O)N2CCCC[C@H]2C(=O)O[C@H]([C@H](C)C[C@@H]2CC[C@@H](O)[C@H](OC)C2)CC(=O)[C@H](C)/C=C(\C)[C@@H](O)[C@@H](OC)C(=O)[C@H](C)C[C@H](C)/C=C/C=C/C=C/1C [Rapamycin] | 109.6 |  |  |
| Cc1nc(Nc2ncc(C(=O)Nc3c(C)cccc3Cl)s2)cc(N2CCN(CCO)CC2)n1 [Dasatinib] |  | 8 | 102 |
